Measured values reported in ChEMBL document CHEMBL5365420, “Kinetics, Thermodynamics, and Structural Effects of Quinoline-2-Carboxylates, Zinc-Binding Inhibitors of New Delhi Metallo-β-lactamase-1 Re-sensitizing Multidrug-Resistant Bacteria for Carbapenems” (J Med Chem, 2023).

Sequences of proteins named here, by UniProt entry; tags and fusion partners are left off. A change or cut given only in a name is not applied to a line headed by its entry.
UniProt C7C422: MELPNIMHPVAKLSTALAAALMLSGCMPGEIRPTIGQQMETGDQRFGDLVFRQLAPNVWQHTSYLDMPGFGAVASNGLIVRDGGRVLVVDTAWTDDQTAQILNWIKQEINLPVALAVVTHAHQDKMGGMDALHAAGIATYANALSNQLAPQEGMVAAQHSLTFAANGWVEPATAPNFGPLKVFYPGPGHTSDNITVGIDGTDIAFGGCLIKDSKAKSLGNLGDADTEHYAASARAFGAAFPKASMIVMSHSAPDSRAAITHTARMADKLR

Target: Metallo-beta-lactamase type 2 (Bacteria, UniProt C7C422)

IC50: 4.9 µM
Structure (SMILES): Oc1c(Cl)cc(Cl)c2cccnc12 [CHLOROXINE]
